Values quoted from earlier work as cited in US20230172920A1, “DOSING REGIMEN FOR TREATING A DISEASE MODULATED BY CSF-1R” (Novartis AG, priority 2020, published 2023).

Details: human, in vivo; cited from earlier work

## emactuzumab: monoclonal antibody against CSF-1R
  serum enzyme increases in clinical trials: Asymptomatic serum enzyme increases
